Only a part is listed here, and it is no random draw. Some tests of the compounds listed are not included; inactive here does not mean inactive elsewhere. Active and inactive are the calls of the source.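 Rule for the calls: active = inhibition above the plate cutoff, the mean of all test compounds on that plate plus 3 SD (cut at about 35% in these data); inactive = the rest.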

26 compounds from PubChem BioAssay AID651821 (The Scripps Research Institute Molecular Screening Center, 2012) can be followed below.

The nature of this assay: binders of r(CAG) RNA repeats, primary screen, biochemical, fluorescence (AID 651821).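 Note: 0% = DMSO alone and 100% = 100 µM mitoxantrone as full dye displacement; higher means more dye released from RNA so lower well fluorescence.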 Particulars: r(CAG) RNA repeat, TO-PRO-1 dye displacement fluorescence; at 3 µM; stronger effect = higher value.
Broadly, the inhibition is the relative decrease from the control value, in per cent. Take `O=C(NCC1(N2CCCCC2)CCCCC1)c1cc([N+](=O)[O-])ccc1Cl`: the inhibition is inactive: 0.32%.

Take `CN1[C@@H]2CC[C@H]1CC(OC(=O)C(O)(c1ccccc1)c1ccccc1)C2` (stereo partly specified): the inhibition is inactive: 0.28%.

Regarding `COc1cc(SC)ccc1C(=O)NCC1(N(C)C)CCCCC1`, the inhibition is inactive: -7.54%.

For the compound `CCN(CC)CC(C)C(C)OC(=O)C(O)(c1ccccc1)c1ccccc1` (stereo unspecified), the inhibition is inactive: -3.61%.

Take `CC(C)N1C(=O)CC2(CCN(CCOC(=O)C(O)(c3ccccc3)c3ccccc3)CC2)C1=O`: the inhibition was inactive: -11.8%.

`Cc1ccc(C(=O)NCC2(N3CCCCC3)CCCCC2)cc1`: the inhibition is inactive: 2.98%.

As to `CN(C)C1CCCC1OC(=O)C(O)(c1ccccc1)c1ccccc1` (stereo unspecified), the inhibition was inactive: -2.88%.

As to `CN(C)c1ccc(C(=O)NCC2(N(C)C)CCCCC2)cc1`, the inhibition was inactive: -4.55%.

On to `Cc1ccccc1C(=O)NCC1(N2CCCCC2)CCCCC1`, for which the inhibition was inactive: -0.43%.

In the case of `O=C(NCC1(N2CCCCC2)CCCCC1)c1cc(F)c(F)cc1Cl`, the inhibition is inactive: -0.95%.

Turning to `C=CCN1CCN(CCOC(=O)C(O)(c2ccccc2)c2ccccc2)CC1`, the inhibition is inactive: -7.77%.

With `COc1ccc(C(=O)NCC2(N(C)C)CCCCC2)cc1`, the inhibition was inactive: 2.31%.

Regarding `O=C(NCC1(N2CCCCC2)CCCCC1)c1cccc(Br)c1`, the inhibition was inactive: -1.65%.

Take `Cc1cc(C(=O)NCC2(N3CCCCC3)CCCCC2)ccc1[N+](=O)[O-]`: the inhibition is inactive: 0.99%.

Consider `CCN1CCCC(OC(=O)C2(O)c3ccccc3C=Cc3ccccc32)C1` (stereo unspecified), for which the inhibition was inactive: -1.53%.

Consider `CN(C)C1(CNC(=O)c2ccc(Br)cc2)CCCCC1`, for which the inhibition is inactive: 1.22%.

For `COc1cc(C(=O)NCC2(N(C)C)CCCCC2)c([N+](=O)[O-])cc1OC`, the inhibition is inactive: -4.87%.

`COc1ccc(Cl)cc1C(=O)NCC1(N(C)C)CCCCC1`: the inhibition was inactive: -1.71%.

For `COc1cccc(C(=O)NCC2(N3CCCCC3)CCCCC2)c1`, the inhibition is inactive: -3.26%.

Take `O=C(NCC1(N2CCCCC2)CCCCC1)c1cccc(Cl)c1`: the inhibition is inactive: 6.16%.

Take `O=C(OC1CN2CCC1CC2)C(CO)(c1ccccc1)c1ccccc1` (stereo unspecified): the inhibition is inactive: -1.22%.

Consider `C=C(C)C#CC(O)(C(=O)OC1CCN(C)CC1)c1ccccc1` (stereo unspecified), for which the inhibition is inactive: 2.37%.

As for `COc1ccc(Br)c(C(=O)NCC2(N3CCCCC3)CCCCC2)c1`, the inhibition was inactive: -3.35%.

`O=C(OCCN1CCCC1)C(O)(c1ccccc1)c1ccccc1`: the inhibition is inactive: 0.68%.

With `CC(C)Oc1ccc(C(=O)NCC2(N(C)C)CCCCC2)cc1`, the inhibition was inactive: -4.85%.

With `CN(C)c1cccc(C(=O)NCC2(N(C)C)CCCCC2)c1`, the inhibition is inactive: -3.86%.
